# Laboratory results reported in US20230295259A1 (Protagonist Therapeutics, Inc., priority 2020, published 2023).
# Like-named read-outs stand apart in the source and are kept apart here.
# What was measured:
# [1] = target: T1, human ferroportin (Homo sapiens, UniProt Q9NP59); experiment: FPN activity assay: internalization/degradation of ferroportin-GFP in stably transfected HEK293 cells (decrease in GFP fluorescence); type: cell-based
# T1 construct: expressed in transfected cells
# T1 sequence (Q9NP59 1-571): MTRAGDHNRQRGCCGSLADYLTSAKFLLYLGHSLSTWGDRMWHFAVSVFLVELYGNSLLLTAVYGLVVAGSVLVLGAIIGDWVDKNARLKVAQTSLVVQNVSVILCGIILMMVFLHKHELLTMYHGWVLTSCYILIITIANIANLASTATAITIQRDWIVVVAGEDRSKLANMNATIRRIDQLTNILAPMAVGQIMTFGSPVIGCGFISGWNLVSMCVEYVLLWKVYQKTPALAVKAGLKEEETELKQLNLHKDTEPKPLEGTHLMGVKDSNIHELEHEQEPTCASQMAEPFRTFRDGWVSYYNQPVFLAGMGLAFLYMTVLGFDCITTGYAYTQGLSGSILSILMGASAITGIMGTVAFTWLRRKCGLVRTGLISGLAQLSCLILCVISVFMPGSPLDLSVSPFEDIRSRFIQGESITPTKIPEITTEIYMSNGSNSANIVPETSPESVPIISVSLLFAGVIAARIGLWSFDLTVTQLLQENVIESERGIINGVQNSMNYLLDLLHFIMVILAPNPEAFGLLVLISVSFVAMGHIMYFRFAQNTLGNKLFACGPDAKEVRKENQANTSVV
# Procedure: Following internalization, the ferroportin protein is degraded.
# A retro inverse peptide is a peptide with a reversed sequence in all D amino acids. An example is that Hy-Glu-Thr-His-NH2 becomes Hy-DHis-DThr-DGlu-NH2. The EC50 of these reference compounds for ferroportin internalization/degradation was determined according to the FPN activity assay described above. These peptides served as control standards.
# These values were determined as described herein.
# [2] = Stability in simulated gastric fluid (SGF with pepsin, pH 1.2); type: in vitro ADME
# Procedure: Blank SGF was prepared by adding 2 g sodium chloride, 7 mL hydrochloric acid (37%) in a final volume of 1 L water, and adjusted pH to 1.2.
# SGF was prepared by dissolving 320 mg Pepsin (Sigma®, P6887, from Porcine Stomach Mucosa) in 100 mL Blank SGF and stirred at room temperature for 30 minutes. The solution was filtered through 0.45 μm membrane and aliquot and stored at −20° C.
# (§1) Experimental compounds of interest (at a concentration of 20 μM) were incubated with pre-warmed SGF at 37° C. Aliquots were taken at various time points up to 24 hours (e.g., 0, 0.25, 1, 3, 6 and 24 hr), and immediately quenched with 4 volumes of organic solvent (acetonitrile/methanol (1:1) and 0.1% formic acid, containing 1 μM internal standard). Quenched samples were stored at 4° C. until the end of the experiment and centrifuged at 4,000 rpm for 10 minutes. The supernatant were diluted 1:1 with deionized water and analyzed using LC-MS. Percentage remaining at each time point was calculated based on the peak area ratio (analyte over internal standard) relative to the initial level at time zero. Half-lives were calculated by fitting to a first-order exponential decay equation using GraphPad.
# [3] = target: T2, ferroportin (endogenously expressed in T47D cells) (Homo sapiens, UniProt Q9NP59); experiment: T47D cell-based ferroportin internalization assay in presence of 0.5% mouse serum albumin (AF647-conjugated detection peptide, flow cytometry)
# T2 construct: is a human breast carcinoma adherent cell line which endogenously expresses ferroportin; host or cells: T47D
# T2 sequence (Q9NP59 1-571): T1 sequence (Q9NP59 1-571)
# [4] = Stability in simulated intestinal fluid (FaSSIF with 1% pancreatin); type: in vitro ADME
# Procedure: FaSSIF was prepared by dissolving 1.2 g porcine pancreatin (Chem-supply, PL378) in 100 mL Blank FaSSIF and stirred at room temperature for 30 minutes. The solution was filtered through 0.45 μm membrane and aliquot and stored at −20° C.
# as §1, with “interest (20” for “interest (at a concentration of 20”, “pre-warmed FaSSIF (1% pancreatin in final incubation mixture)” for “pre-warmed SGF”, “hours (e.g.” for “hours (e.g.,”, “supernatant was” for “supernatant were”
# Compounds of interest (at concentration of 20 μM) were mixed with pre-warmed FaSSIF (1% pancreatin in final working solution). The solution mixture was aliquoted and incubated at 37° C. The number of aliquots required was equivalent to the number of time points (e.g. 0, 0.25, 1, 3, 6 and 24 hr). At each time point, one aliquot was taken and immediately quenched with 4 volumes of organic solvent (acetonitrile/methanol (1:1) and 0.1% formic acid, containing 1 μM internal standard). The remaining steps were the same as the generic experimental.
# [5] = Table 2A, HEK293 cells expressing human ferroportin-GFP, at least 18 hours incubation, read-out: FPN EC50
# [6] = Table 2A, 20 μM in SGF with pepsin, pH 1.2, 37° C., percent in brackets not explained
# [7] = Table 2C, class symbols, read-out: FPN IC50
# [8] = read-out: T47D IC50, Table 2C, class symbols
# [9] = Table 2C, numeric values of reference compounds, read-out: FPN IC50
# [10] = Table 2C, percent in brackets on next line not explained
# [11] = Table 2B, HEK293 cells expressing human ferroportin-GFP, at least 18 hours incubation, read-out: FPN EC50
# [12] = read-out: IC50: T47D Internalization MSA
# [13] = Table 2A, 20 μM in FaSSIF with 1% pancreatin, 37° C., percent in brackets not explained
substance,measurement,setting,value
Isovaleric Acid-E-T-H-[Dpa]-P-[Cys]-I-[(D)Lys]-[bhPhe]-[Lys(2Peg11′_Palm)]-[Cys]-[(D)Lys]-NH2 [Compound 4],DC50,[1]; [5],17 nM
same,SGF Half life,[2]; [6],624 min
[Isovaleric Acid]-E-T-[N—MeHis]-[Dpa]-P—C—I-[(D)Lys]-[bhPhe]-[Lys(Ahx_Palm)]-[(D)Lys]-C—NH2 [Compound 616],DC50,[1]; [7],31 to 100 nM
same,IC50,[3]; [8],11 to 100 nM
[Isovaleric Acid]-E-[(D)Asp]-H-[Dpa]-P—C—I-[(D)Lys]-[bhPhe]-[Lys(PEG12_Palm)]-R—C—NH2 [Compound 607],DC50,[1]; [7],1 to 30 nM
same,IC50,[3]; [8],1 to 10 nM
[Isovaleric Acid]-E-T-[3Pal]-[Dpa]-P—C—I-[(D)Lys]-[bhPhe]-[Lys(PEG12_Palm)]-R—C—NH2 [REF1],DC50,[1]; [9],30 nM
same,SIF Half life,[4]; [10],<15 min
same,SGF Half life,[2]; [10],<15 min
Isovaleric Acid-E-T-H-[Dpa]-P—C—I-[Lys(PEG12_IsoGlu_Palm)]-[bhPhe]-[(D)Lys(PEG11_OMe)]—C—NH2 [Compound 291],DC50,[1]; [11],12.2 nM
same,IC50,[3]; [12],2.22 nM
Isovaleric Acid-E-T-H—F—P—C—I-[Lys(IsoGlu_Palm)]-F-E-P-[Lys(Ac)]-S—K-G-C—K—NH2 [Compound 228],DC50,[1]; [11],12 nM
same,IC50,[3]; [12],31.7 nM
Isovaleric acid-DTHFPCIKF-Lys[2Peg11′-Palm]-PRSKGCK—NH2 [2 (Ref-1)],SIF Half life (min),[4]; [13],<15 (1%) min
same,SIF Half life,"[4]; Table 2A, 20 μM in FaSSIF with 1% pancreatin, 37° C., percent in brackets not explained, listed as 2",84 min
same,SGF Half life (min),[2]; [6],<15 (6%) min
same,SGF Half life,"[2]; Table 2A, 20 μM in SGF with pepsin, pH 1.2, 37° C., percent in brackets not explained, listed as 2",540 min
Isovaleric Acid-[IsoGlu]-T-H-[Dpa]-P—C—I-[Lys(1PEG2_1PEG2_Ahx_C18_Diacid)]-[bhPhe]-[(D)Lys]-C—NH2 [Compound 299],DC50,[1]; [11],22 nM
same,IC50,[3]; [12],69 nM
Isovaleric Acid-E-T-H—F—P—C—I-[Lys(1PEG2_1PEG2_IsoGlu_C18_Diacid)]-F-E-P—R—S—K-G-[Pen]-K—NH2 [Compound 205],DC50,[1]; [11],260 nM
same,IC50,[3]; [12],349 nM
Isovaleric Acid-E-T-H-[Dpa]-P—C—I-[Lys(PEG4_IsoGlu_C18_Diacid)]-[bhF]-[(D)Lys]-C—NH2 [Compound 239],DC50,[1]; [11],29 nM
same,IC50,[3]; [12],116 nM
[Isovaleric Acid]-E-T-[Orn]-[Dpa]-P—C—I-[(D)Lys]-[bhPhe]-[Lys(PEG12_Palm)]-R—C—NH2 [Compound 604],DC50,[1]; [7],1 to 30 nM
same,IC50,[3]; [8],1 to 10 nM
Isovaleric Acid-E-T-H-[Dpa]-P—C—I-[Lys(1PEG2_1PEG2_Ahx_C18_Diacid)]-[bhPhe]-[(D)Lys(Ac-C—NH2 [Compound 290],DC50,[1]; [11],27.4 nM
same,IC50,[3]; [12],61.6 nM
[Isovaleric Acid]-E-S-H-[Dpa]-P—C—I-[(D)Lys]-[aMePhe]-[Lys(PEG12_Palm)]-[(D)Lys]-C—NH2 [Compound 611],DC50,[1]; [7],> 500 nM
same,IC50,[3]; [8],11 to 100 nM
Isovaleric Acid-E-T-H-[Dpa]-P—C—I-[Lys(PEG12_C18_Diacid)]-[bhPhe]-[(D)Lys(PEG11_OMe)]—C—NH2 [Compound 293],DC50,[1]; [11],25.4 nM
same,IC50,[3]; [12],58.2 nM
Isovaleric Acid-E-T-H-[Dpa]-P—C—I-[Lys(PEG12_Ahx_C18 acid)]-[bhPhe]-[(D)Lys]-C—NH2 [Compound 307],DC50,[1]; [11],10.6 nM
same,IC50,[3]; [12],0.89 nM
[Isovaleric Acid]-E-L-H-[Dpa]-P—C—I-[(D)Lys]-[bhPhe]-[Lys(Ahx_Palm)]-[(D)Lys]-C—NH2 [Compound 617],DC50,[1]; [7],31 to 100 nM
same,IC50,[3]; [8],11 to 100 nM
[Isovaleric Acid]-E-T-[2Pal]-[Dpa]-P—C—I-[(D)Lys]-[bhPhe]-[Lys(PEG12_Palm)]-R—C—NH2 [REF2],DC50,[1]; [9],13 nM
same,SIF Half life,[4]; [10],<15 min
same,SGF Half life,[2]; [10],26 min
Isovaleric Acid-E-T-H—F—P-[Cys]-I-[(D)Lys]-F-[Lys(2Peg11′_Palm)]-K-[Cys]-NH2 [Compound 1],SGF Half life,[2]; [6],6 min
Isovaleric Acid-E-T-H-[Dpa]-P-[Cys]-I-[Lys(2Peg11′_IsoGlu_C18_Diacid)]-[bhPhe]-[(D)Lys]-[Cys]-NH2 [Compound 110],DC50,[1]; [5],25.4 nM
same,IC50,[3]; [12],269 nM
Isovaleric Acid-E-T-H-[Dpa]-P—C—I-[Lys(PEG12_C16_Diacid)]-[bhPhe]-[(D)Lys]-C—NH2 [Compound 265],DC50,[1]; [11],10.7 nM
same,IC50,[3]; [12],31.3 nM
Isovaleric Acid-E-T-H-[Dpa]-P—C—I-[Lys(1PEG2_1PEG2_IsoGlu_C14_Diacid)]-[bhPhe]-[(D)Lys]-C—NH2 [Compound 233],DC50,[1]; [11],12.2 nM
same,IC50,[3]; [12],63.5 nM
[Isovaleric Acid]-E-[Dap]-H-[Dpa]-P—C—I-[(D)Lys]-[bhPhe]-[Lys(PEG12_Palm)]-R—C—NH2 [Compound 606],DC50,[1]; [7],31 to 100 nM
same,IC50,[3]; [8],11 to 100 nM
Isovaleric Acid-E-T-H-[Dpa]-P-[Cys]-I-[Lys(2Peg11′_IsoGlu_C16_Diacid)]-[bhPhe]-[(D)Lys]-[Cys]-NH2 [Compound 109],DC50,[1]; [5],14.2 nM
same,IC50,[3]; [12],216 nM
[Isovaleric Acid]-E-T-[3Pal]-[Dpa]-P—C—I-[(D)Lys]-[bhPhe]-[Lys(PEG12_Palm)]-R—C—NH2 [Compound 620],DC50,[1]; [7],31 to 100 nM
same,IC50,[3]; [8],11 to 100 nM
Isovaleric Acid-E-T-H-[Dpa]-P-[Cys]-I-[(D)Lys]-[bhPhe]-[Lys(2Peg11′_Palm)]-[(D)Lys]-[Cys]-NH2 [Compound 3],IC50,[3]; [12],6.69 nM
same,SIF Half life,[4]; [13],>750 min
same,SGF Half life,[2]; [6],>700 min
Isovaleric Acid-E-T-H-[Dpa]-P—C—I-[Lys(1PEG2_1PEG2_IsoGlu_C16_Diacid)]-[bhPhe]-[(D)Lys]-C—NH2 [Compound 232],DC50,[1]; [11],16.4 nM
same,IC50,[3]; [12],50.4 nM
